Measured values reported in patent publication US8883739B2, “Osteocalcin as a treatment for male reproductive disorders” (The Trustees of Columbia University in the City of New York, priority 2010, dated 2014).

System: TM3 Leydig cells
Test: cAMP quantification in Leydig cells
Type: cell-based, mouse
Conditions: 30 minutes, 0.5 mM IBMX
Method: For cAMP measurements, TM3 Leydig cells were plated in 6 cm dishes (10^7 cells per dish) a day before experiment. Cells were serum starved for 16 hours (in the presence of 0.1% BSA) then pre-incubated in the presence of 0.5 mM IBMX for 30 minutes and stimulated with the indicated concentration of osteocalcin (also in the presence of 0.5 mM IBMX) for 30 minutes. cAMP concentration was measured with the Parameter cAMP kit (R&D Systems, KGE002).

In the case of “hCG: human chorionic gonadotropin, positive control; binds to the LH receptor on Leydig cells [reference compound]”, the cAMP production is reported as “induced”.
